# Experimental data: PubChem BioAssay AID720580 (National Center for Advancing Translational Sciences (NCATS), 2013)
# The list shows a part of the results, in another mix than the full data. Results filed as inconclusive are left out. Active and inactive are the calls of the source. Calls follow the shape of the full dose curve; tested in A549 cells.
# Test: qHTS for Stage-Specific Inhibitors of Vaccinia Orthopoxvirus: Venus Reporter Primary qHTS; also: nearly all actives have a fitted effect of over 30% in size
# Settings: Vaccinia virus Venus reporter expression, fluorescence; at 36.5 µM (top of the series)
# % is scaled to controls: 0 for no effect and ±100 for the full control effect.
row,Compound,"activity change, negative = inhibition"
1,CN(CCCl)CCCl,inactive: -12.2%
2,CCC(=O)N(c1ccccc1)C1(COC)CCN(CCn2nnn(CC)c2=O)CC1,inactive: -11.3%
3,CCC(=O)N(c1ccccc1)C1(COC)CCN(CCc2cccs2)CC1,inactive: -4.27%
